Experimental data: ChEMBL document CHEMBL1137197, “Discovery of thiadiazoles as a novel structural class of potent and selective PDE7 inhibitors. Part 1: design, synthesis and structure-activity relationship studies” (Bioorg Med Chem Lett, 2004)

Protein sequences, listed by entry. Tags and fused reporters are not part of them. Lines headed by an entry give the natural chain unless they say otherwise; changes in a name come on top.
UniProt Q13946: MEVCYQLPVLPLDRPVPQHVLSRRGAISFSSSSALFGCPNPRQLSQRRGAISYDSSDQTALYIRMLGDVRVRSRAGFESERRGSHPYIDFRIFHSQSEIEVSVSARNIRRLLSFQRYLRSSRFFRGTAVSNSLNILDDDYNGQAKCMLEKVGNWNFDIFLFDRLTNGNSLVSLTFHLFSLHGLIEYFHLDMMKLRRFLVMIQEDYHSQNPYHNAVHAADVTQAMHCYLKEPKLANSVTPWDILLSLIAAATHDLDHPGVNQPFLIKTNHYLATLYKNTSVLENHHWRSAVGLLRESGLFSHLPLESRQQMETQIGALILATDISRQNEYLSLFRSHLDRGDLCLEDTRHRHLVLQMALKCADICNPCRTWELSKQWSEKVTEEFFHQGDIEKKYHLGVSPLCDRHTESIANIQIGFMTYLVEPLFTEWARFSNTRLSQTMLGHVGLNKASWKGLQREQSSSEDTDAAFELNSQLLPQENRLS

Biological target: High affinity 3',5'-cyclic-AMP phosphodiesterase 7A (Homo sapiens, UniProt Q13946)
Test: Inhibition of human Phosphodiesterase 7A1 expressed in baculovirus infected Sf9 cells

- IC50: 60 nM
SMILES: CC(=O)Nc1ccc(-c2nn(C)/c(=N/C3CCCCC3)s2)cc1
